Data set [1] relates to MCF7. The settings on record: Homo sapiens, dose 60.0 mg/kg, route ip, time 14.0 day.
Data set [2] deals with MCF7. The conditions noted are these: Homo sapiens, dose 30.0 mg/kg, route ip, time 14.0 day.
For data set [3], the system named is MCF7. The settings on record: Homo sapiens, dose 10.0 mg/kg, route ip, time 14.0 day.
Data set [4] is described as follows: in vivo. The conditions noted are these: Sprague-Dawley, rat, iv, 1 mg/kg.
A short description of data set [5]: in vivo. The settings on record: Sprague-Dawley, rat, po, 20 mg/kg.
Data set [6] in a line: in vivo. The settings on record: Sprague-Dawley, rat, iv, 1 mg/kg. This is another data set of the same source.
Data set [7] is described as follows: in vivo. The conditions noted are these: Sprague-Dawley, rat, iv, 1 mg/kg. This is another data set of the same source.
Data set [8] can be described thus: in vivo. The settings on record: Sprague-Dawley, rat, po, 20 mg/kg. The source holds these as a separate data set.
A short description of data set [9]: in vivo. The settings on record: Sprague-Dawley, rat, po, 20 mg/kg. The source holds these as a separate data set.
The test system of data set [10] is MCF7. Description: animal or person. The conditions noted are these: Mus musculus, MCF7, 336 h, read-out: TGI.
Data set [11] in a line: in vivo. The settings on record: Sprague-Dawley, rat, po, 20 mg/kg. The source holds these as a separate data set.
For data set [12], the system named is MCF7. In words: animal or person. The settings on record: Mus musculus, MCF7, 336 h, read-out: TGI. This is another data set of the same source.
Data set [13] concerns MCF7. In words: animal or person. The conditions noted are these: Mus musculus, MCF7, 336 h, read-out: TGI. The source holds these as a separate data set.
The nature of data set [14]: in vivo. The conditions noted are these: Sprague-Dawley, rat, iv, 1 mg/kg. The source holds these as a separate data set.
Data set [15] is described as follows: in vivo. The settings on record: Sprague-Dawley, rat, po, 20 mg/kg. This is another data set of the same source.

Structures are written as SMILES. Calls of active or inactive are those of the source. The calls are words filed in the database; no cut-off is given here.

As to `COc1ccc(Cl)cc1S(=O)(=O)Nc1cccn2ncnc12`, the TGI entry in the data set on MCF7 [1], with MCF7 [2] and in the data set on MCF7 [3] was “inactive” in each case.

Broadly, the AUC(0-inf) is the area under the concentration-time curve extrapolated to infinity. A higher AUC(0-inf) goes with high exposure. The half-life is the time in which the quantity being followed falls by half. Low readings indicate rapid decline, high ones slow decline. By Cmax is commonly meant the maximum level reached in the sampled fluid or tissue. One may read the MRT inf as a mean duration of stay, worked out from the concentration-time curve. What is called bioavailability is the share of a dose that reaches the circulation, judged against a reference dose that is usually intravenous. A low value points to little systemic uptake. Usually Tmax stands for the time at which the peak concentration occurs. As to `O=S(=O)(Nc1cc(F)cc2cccnc12)c1cccc2cccnc12`, the AUC(0-inf) at 24 h in the data set “in vivo [4]” was 235 ng·h/mL; in the data set “in vivo [9]”, 28.9 ng·h/mL. Moreover, the results for the half-life at 24 h in the data set “in vivo [5]” and in “in vivo [14]” were 1.68 h and 1.59 h, respectively. Moreover, the Cmax at 24 h in “in vivo [6]” is 426 ng/mL. Moreover, the results for the MRT inf at 24 h in “in vivo [7]” and in the data set “in vivo [11]” were 1.1 h and 4.07 h, respectively. Moreover, in “in vivo [8]”, the bioavailability at 24 h was determined as 0.58%. Besides, the inhibition in vivo at 10 mg/kg in the data set with MCF7 [10] stood at 28.6%. In addition, the inhibition in vivo at 60 mg/kg in the data set with MCF7 [12] worked out at 50.5%. In addition, in the data set on MCF7 [13], the inhibition in vivo at 30 mg/kg is 40.5%. Besides, the Tmax at 24 h in the data set “in vivo [15]” stood at 0.22 h.

Source of the values: ChEMBL document CHEMBL6087484, “Discovery of Novel Small-Molecule Inhibitors Disrupting the MTDH-SND1 Protein-Protein Interaction” (J Med Chem, 2025).
